Data taken from article PMC8900816, “High-resolution structures of the bound effectors avadomide (CC-122) and iberdomide (CC-220) highlight advantages and limitations of the MsCI4 soaking system” (Acta Crystallographica. Section D, Structural Biology, 2022).

Biological target: T1, MsCI4 (Magnetospirillum gryphiswaldense, UniProt A4TVL0)
T1 construct: gene MGR_0879; wild-type single-domain bacterial cereblon homologue; pETHis1a, E. coli C41(DE3); His tag removed with TEV; three monomers per asymmetric unit; structural zinc; RED-NHS amine-labelled for MST
T1 sequence (A4TVL0 1-124): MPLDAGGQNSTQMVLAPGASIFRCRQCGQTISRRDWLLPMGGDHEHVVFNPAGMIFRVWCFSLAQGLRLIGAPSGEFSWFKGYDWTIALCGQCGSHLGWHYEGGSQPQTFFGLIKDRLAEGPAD
Assay: labelled microscale thermophoresis
Assay type: binding
Conditions: read-out: MsCI4 (K d, μM) / Labelled MST
Source text: labelled microscale thermophoresis on MsCI4

Kd: 6.68 ± 0.8 µM
Structure (SMILES): O=C1CC[C@H](N2C(=O)c3ccccc3C2=O)C(=O)N1 [Thalidomide]
